Bioassay records as filed in PubChem BioAssay.
A549 tox-1 – counter-screen for Nrf2 inhibitors: cytotoxicity in A549 cells. A549 ARE-Fluc cells, CellTiter-Fluor viability, 18-24 h. Potency, µM (top dose mostly 46 µM), for the others: top-dose activity change, negative = cytotoxicity, most hits filed as inhibitors. 390,000 compounds, 0.16% hits; further: potency means the concentration at half of the fitted maximal effect; on the % scale 0 is the no-effect control and ±100 the full control effect
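A549 ARE_Fluc cells in 5% FBS OPTI-MEM were exposed to compounds in concentration-response for 18-24 h at 37 deg C. Viability was read by CellTiter-Fluor fluorescence (Ex 405/Em 525) after 30 min, before the luciferase read.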
p53 reactivator – re-activators of mutant p53 | H1299 p53-A138V BP100-luciferase reporter, luminescence, 24 h | Potency, µM (series often up to 92.2 µM), for the others: top-dose activity change, positive = activation, most hits filed as activators | 320,000 compounds, 0.063% hits | AID 504706; further: potency means the concentration at half of the fitted maximal effect; % of control where 0% means no effect; nearly all actives have a fitted effect of over 45% in size
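H1299 (p53-null), stable ts p53-A138V + BP100-Luc; 1000 cells/well, Opti-MEM/10% FBS; cpd 4 pt, 1:5; 24 h, 37 deg C, 5% CO2; detection reagent 10 min RT; luminescence.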
Nrf2 block – blocks Nrf2 signaling; Potency, µM (titrated, usually from 46 µM), for the others: at the highest dose activity change, negative = inhibition, usual class: inhibitors; A549 ARE-Fluc reporter, luciferase luminescence, 18-24 h; 360,000 compounds, 2.1% hits; AID 504444; further: potency means the concentration at half of the fitted maximal effect; on the % scale 0 is the no-effect control and ±100 the full control effect; nearly all actives have a fitted effect of over 60% in size
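Nrf2 function is reported as luminescence of an ARE-controlled luciferase in A549 cells. Compounds were tested at several concentrations, and a CellTiter-Fluor read on the same wells flagged cytotoxicity.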
ClpP mod – qHTS Assay for Activators of ClpP. purified B. subtilis ClpP, FRET peptide cleavage, 20 min. Potency, µM (doses to about 57.5 µM), without a hit: at the highest dose activity change, negative = active. 340,000 compounds, 1.9% hits. ATP-dependent Clp protease proteolytic subunit (Bacillus subtilis (strain 168)), P80244; active means well fitted falling curve with a large enough effect; inconclusive means small, poorly fitted or top-dose-only effect; inactive means no such curve, though single readings can be large or run the other way; further: potency means the concentration at half of the fitted maximal effect; the source files actives as falling curves though it sought activators and does not explain the sign; nearly all actives have a fitted effect of over 65% in size
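Buffer: 100 mM Tris/HCl pH8, 100 mM KCl, 0.05% low protease BSA, 2.5% glycerol, 0.01% Tween-20. ClpP 10 microg/mL final; 20 min RT; delta FRET normalized to ADEP and DMSO controls.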
Nrf2 activator – Nrf2 pathway activation | AREc32 ARE-luciferase reporter (MCF7-derived line), luminescence, 24 h | Potency, µM (titrated, usually from 46.1 µM), inactives show at the highest dose activation, most hits filed as activators | 410,000 compounds, 0.31% hits | AID 624171; further: potency means the concentration at half of the fitted maximal effect; % of control where 0% means no effect; nearly all actives have a fitted effect of over 65% in size
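AREc32 cells carrying an ARE-driven firefly luciferase reporter were seeded at 1000 cells/well in OPTI-MEM with 5% FBS, then exposed to compound for 24 hr at 37 deg C. Luminescence was read with Steady-Glo after 30 min at RT.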
miR-21 reporter – miR-21 reporter, rising signal | HeLa miR-21 FLuc reporter, luciferase, 48 h | Potency, µM (highest dose often 38.3 µM), for inactives: at the top dose reporter change, positive = more light | 340,000 tested, under 10 active | AID 2288; active = well fitted rising curve with a large enough effect; inconclusive = small, poorly fitted or top-dose-only effect; inactive = no such curve, though single readings can be large or run the other way;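 further: % of control where 0% means no effect; miR-21 action dims this reporter so a rising signal means less miR-21 action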
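HeLa miR-21-FLuc reporter line, endogenous miR-21; 2000 cells/well in DMEM/10% FBS; compound titration up to ~40uM final, 48 h, 37 degree Celsius; luciferase detection reagent, 15 min lysis, CCD luminescence.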
FLuc counter 3 – firefly luciferase inhibition, Nrf2 hit validation. shares compounds with Nrf2 block. purified firefly luciferase, luminescence inhibition. 1,400 compounds, 4% hits. Potency, µM (series often up to 57.5 µM), for inactives: at the top dose activity change, negative = inhibition, actives largely listed as inhibitors. AID 720522; further: potency means the concentration at half of the fitted maximal effect; on the % scale 0 is the no-effect control and ±100 the full control effect; nearly all actives have a fitted effect of over 65% in size
A549 tox-2 – counter-screen for Nrf2 inhibitors: cytotoxicity in A549 ARE cells | 1,400 compounds, 2% hits | A549 ARE-Fluc cells, cytotoxicity counterscreen | shares compounds with Nrf2 block | Potency, µM (series often up to 46.1 µM), for inactives: top-dose activity change, negative = cytotoxicity, hits mostly inhibitors | AID 720523;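 further: potency means the concentration at half of the fitted maximal effect; cells exposed to compounds for 18 to 24 hours; on the % scale 0 is the no-effect control and ±100 the full control effect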
ARE-Fluc inh – Nrf2 inhibition confirmed, A549 ARE-luciferase | shares compounds with Nrf2 block | A549 ARE-firefly luciferase reporter, luminescence | Potency, µM (series often up to 46.1 µM), for inactives: at the top dose activity change, negative = inhibition, usual class: inhibitors | 1,400 compounds, 74% hits | AID 720524; further: potency means the concentration at half of the fitted maximal effect; on the % scale 0 is the no-effect control and ±100 the full control effect; nearly all actives have a fitted effect of over 65% in size
Numbers without * were called inactive; ? = inconclusive; . = no result given; [ ] = remark or other dose. An excerpt weighted towards active compounds, which were near 3.7% of everything screened. Unless noted, the call rests on the fitted dose curve; in most records, active means well fitted curve in the direction sought with a large enough effect; inconclusive means small, poorly fitted or top-dose-only effect, or another doubt; inactive means no such curve, though single readings can be large; an effect the other way counts as inactive or inconclusive.

SMILES	A549 tox-1	p53 reactivator	Nrf2 block	ClpP mod	Nrf2 activator	miR-21 reporter	FLuc counter 3	A549 tox-2	ARE-Fluc inh
COc1cc(C(=O)N/N=C/c2ccc(OC(=O)c3ccccc3Cl)c(OC)c2)ccc1O	-1.6%	-3.7%	1.46µM*	-0.6%	3.2%	4.2%	0.536µM*	2.3%	0.92µM*
O=C(CSCc1cnn(-c2ccccc2)c1-n1cccc1)NCc1cccc(Cl)c1	-1.7%	.	?	-22.2%	-0.7%	-3.7%	.	.	.
CCN1CCc2c(sc(NC(=S)NC(=O)c3ccc(Cl)cc3)c2C(N)=O)C1	2.0%	-0.9%	2.4%	.	4.9%	-14.2%	.	.	.
Cc1ccc(S(=O)(=O)N(C)Cc2ccc(C(=O)N/N=C/c3ccc(OC(F)F)cc3)cc2)cc1	-6.1%	7.1%	5.8µM*	0.4%	2.4%	-0.5%	2.8%	-10.5%	6.51µM*
O=C(N/N=C/c1ccc(OC(F)F)cc1)c1cc[n+]([O-])cc1	-3.8%	-12.6%	-18.7%	.	-0.6%	0.3%	.	.	.
CCc1ccc(-n2nc3ccc(NC(=O)COc4ccc(OC)cc4)cc3n2)cc1	-5.6%	.	1.64µM*	4.1%	3.5%	-12.0%	-18.3%	7.4%	-1.0%
CCCC1OC2CC3C4CCC5=CC(=O)C=CC5(C)C4C(O)CC3(C)C2(C(=O)O)O1 (stereo not given)	-15.4%	.	0.461µM*	0.3%	0.0%	-27.3%	-2.8%	-15.4%	1.3µM*
CCC(=O)[C@@]1(C)[C@H](C)C[C@H]2[C@@H]3CCC4=CC(=O)C=C[C@]4(C)[C@H]3[C@@H](O)C[C@@]21C	-9.3%	-8.0%	0.0164µM*	0.8%	-1.1%	.	3.1%	-9.3%	0.0184µM*
CCCC1O[C@@H]2C[C@H]3[C@@H]4CCC5=CC(=O)C=C[C@]5(C)[C@H]4[C@@H](O)C[C@]3(C)[C@]2(C(=O)CO)O1 (stereo not given in full)	-16.1%	1.1%	?	1.1%	-0.3%	-22.9%	.	.	.
CCC(C(=O)Nc1ccccc1OC)n1c(C(=O)OC)cc2sc(Cl)cc21 (stereo not given)	11.7%	.	4.7%	-3.9%	14.1%	21.6%	.	.	.
CCCCOc1cccc(C(=O)Nc2ccc3oc(-c4cccnc4)nc3c2)c1	-10.5%	.	6.51µM*	?	-1.1%	-2.3%	-15.5%	-1.3%	7.31µM*
CCCCOc1ccc(C(=O)Nc2ccc3oc(-c4cccnc4)nc3c2)cc1	-1.3%	.	-20.1%	-26.4%	-0.5%	2.4%	.	.	.
O=C(CNC(=O)c1ccccc1Cl)NCCc1cccs1	22.9%	11.0%	4.0%	-1.3%	4.6%	.	.	.	.
COc1ccc(N2CCN(c3ncnc4onc(C)c34)CC2)cc1	5.2%	.	9.2µM*	1.0%	-1.4%	16.1%	3.3%	-2.2%	7.31µM*
COc1ccc(N2CCN(c3ncnc4onc(-c5ccc(F)cc5)c34)CC2)cc1	3.8%	.	-3.7%	2.8%	0.8%	10.0%	.	.	.
O=C(CSC1=NCCS1)Nc1ccnc2ccccc12	-14.6%	29.1%	5.17µM*	-0.4%	11.2%	12.8%	-2.3%	-10.8%	7.31µM*
O=C(CSC1=NCCS1)Nc1ccc2ccccc2c1	8.9%	19.8%	8.9%	.	8.1%	-38.1%	.	.	.
Cc1cc(C)nc(SCC(=O)Nc2ccnc3ccccc23)n1	?	-0.8%	1.16µM*	.	2.7%	13.2%	-1.9%	-8.9%	-24.3%
Cc1cccc(CC(=O)N2CC(=O)Nc3ccc(C)cc3C2c2ccc(F)cc2)c1 (stereo not given)	1.2%	.	1.4%[9.27 µM]	-2.1%	8.1%	26.4%	.	.	.
COc1cccc(NC(=O)c2sc3nc(C)c(C(=O)Nc4ccc(Cl)cc4)c(-c4ccc(Br)cc4)c3c2N)c1	5.2%	.	0.3%[9.27 µM]	-4.9%	0.2%	0.9%	.	.	.
N#Cc1cc(-c2ccccc2)[nH]c1-c1nccc2ccccc12	-13.7%	0.0%	9.2µM*	4.5%	0.2%	25.5%	-12.4%	-3.7%	?
O=C(NC(=S)Nc1ccc(Cc2ccncc2)cc1)c1ccc(F)cc1	0.0%	-3.0%	5.8µM*	-0.6%	4.2%	8.8%	-16.8%	6.5%	?
CC(=O)[C@H]1CC[C@H]2[C@@H]3CCC4=CC(=O)CC[C@]4(C)[C@H]3[C@H](O)C[C@]12C	-0.2%	4.0%	2.1%	-0.2%	-0.7%	2.9%	.	.	.
C[C@]12C[C@H](O)[C@H]3[C@@H](CCC4=CC(=O)CC[C@@]43C)[C@@H]1CC[C@@H]2C(=O)CO	-8.2%	1.0%	0.411µM*	1.2%	3.2%	-20.1%	2.1%	-4.7%	1.3µM*
CC(=O)[C@H]1CC[C@H]2[C@@H]3C[C@H](C)C4=CC(=O)CC[C@]4(C)[C@H]3[C@@H](O)C[C@]12C	0.2%	0.8%	0.058µM*	-0.5%	0.1%	-20.3%	-0.1%	-3.9%	0.146µM*
COc1ccccc1C(=O)NC1CCN(C(=S)NCCc2ccccc2)CC1	7.9%	-3.4%	-15.0%	.	-0.6%	-0.8%	.	.	.
Cc1ccc(CNC(=O)Cn2nc(N3CCN(c4ccccc4)CC3)ccc2=O)cc1	-3.3%	.	?	-0.9%	1.8%	10.0%	.	.	.
c1ccc2nc3c(cc2c1)CCCC3	.	.	.	-2.2%	.	.	.	.	.
Cc1onc(-c2ccccc2)c1C(=O)NC(=S)NNC(=O)c1ccc(O)cc1O	-14.0%	-1.4%	7.31µM*	-1.1%	-0.2%	?	-18.5%	-9.9%	5.8µM*
COc1cccc(C(=O)N(Cc2ccccc2)Cc2cc3cc4c(cc3[nH]c2=O)OCCO4)c1	-18.0%	-7.1%	2.59µM*	28.2µM*	-0.2%	-3.9%	-4.0%	-23.1%	?
COc1ccc(C(=O)N(Cc2ccccc2)Cc2cc3cc4c(cc3[nH]c2=O)OCCO4)cc1	-3.5%	6.0%	.	?	-0.4%	-0.5%	.	.	.
CC(=O)O[C@@H]1[C@@H](O)CN[C@@H]1Cc1ccccc1	?	.	0.231µM*	.	.	.	3.0%	?	0.326µM*

Single records, from the list above. Values in the order: A549 tox-1	p53 reactivator	Nrf2 block	ClpP mod	Nrf2 activator	miR-21 reporter	FLuc counter 3	A549 tox-2	ARE-Fluc inh
COc1ccc(C(=O)N(Cc2ccccc2)Cc2cc3cc4c(cc3[nH]c2=O)OCCO4)cc1 in the list: -3.5%	6.0%	.	?	-0.4%	-0.5%	.	.	.
Cc1ccc(CNC(=O)Cn2nc(N3CCN(c4ccccc4)CC3)ccc2=O)cc1 in the list: -3.3%	.	?	-0.9%	1.8%	10.0%	.	.	.
CC(=O)O[C@@H]1[C@@H](O)CN[C@@H]1Cc1ccccc1 in the list: ?	.	0.231µM*	.	.	.	3.0%	?	0.326µM*
